Tested on: Hashimoto's
Experiment: Case reports, Hashimoto's thyroiditis
Conditions: person; from 300

O=C1CC[C@@]2(O)[C@H]3Cc4ccc(O)c5c4[C@@]2(CCN3CC2CC2)[C@H]1O5 [Immediate release naltrexone, naltrexone]
B12: 1785

Source: patent publication US20170239239A1, “Method for Inducing a Sustained Immune Response” (Immune Therapeutics Inc., priority 2016, published 2017)
